Laboratory results reported in the NIST ThermoML archive (doi:10.1016/j.fluid.2007.09.002).
Numbers after ± are expanded uncertainties.

Conditions: Liquid, Closed cell (Static) method

CCCCOCCCC [dibutyl ether]
Conditions	vapor or sublimation pressure [kPa]
263.15 K	0.077 ± 0.002
273.15 K	0.166 ± 0.004
283.15 K	0.337 ± 0.008
293.15 K	0.649 ± 0.014
298.15 K	0.885 ± 0.019
303.15 K	1.193 ± 0.026
313.15 K	2.103 ± 0.043
323.15 K	3.571 ± 0.073
333.15 K	5.862 ± 0.12
343.15 K	9.329 ± 0.19
